Like-named read-outs stand apart in the source and are kept apart here.
What was measured:
Assay in all cases: biochemical
Assay type in all cases: binding
HLA-DR DRB1*1501 (DR15) = HLA-DR DRB1*1501 (DR15) (Homo sapiens, UniProt P01903+P01911)
HLA-DR DRB3*0101 (DR52) = HLA-DR DRB3*0101 (DR52) (Homo sapiens, UniProt P01903+P79483)
HLA-DR DRB4*0101 (DR53) = HLA-DR DRB4*0101 (DR53) (Homo sapiens, UniProt P01903+P13762, G164S)
HLA-DR DRB1*1302 (DR13) = HLA-DR DRB1*1302 (DR13) (Homo sapiens, UniProt P01903+P01911, A100E/A169T/K41T/L162R/M171V/P40S/Q125H/Q178H/Q39Y/Q99D/R42S/S66N/T262R/V115G/W38E/Y61H)
HLA-DR DRB5*0101 (DR51) = HLA-DR DRB5*0101 (DR51) (Homo sapiens, UniProt P01903+Q30154)
HLA-DR DRB1*1101 (DR11) = HLA-DR DRB1*1101 (DR11) (Homo sapiens, UniProt P01903+P01911, A100R/A169T/A87E/I96F/K41T/L162R/M171V/P40S/Q125H/Q178H/Q39Y/Q99D/R42S/S66Y/T262R/V115G/W38E)
HLA-DR DRB1*0401 (DR4) = HLA-DR DRB1*0401 (DR4) (Homo sapiens, UniProt P01903+P01911, A100K/A169T/F76Y/I96L/K127E/L162R/M171V/N62H/P40V/Q125Y/R42H/S133A/S149N/S66Y/V115G/V209L/W38E); conditions: DRB1 *0401
HLA-DR DRB1*0405 (DR4) = HLA-DR DRB1*0405 (DR4) (Homo sapiens, UniProt P01903+P01911, A100R/A169T/D86S/F76Y/I96L/K127E/L162R/M171V/N62H/P40V/Q125Y/R42H/S133A/S149N/S66Y/V115G/V209L/W38E); conditions: DRB1 *0405
HLA-DR DRB1*0101 (DR1) = HLA-DR DRB1*0101 (DR1) (Homo sapiens, UniProt P01903+P01911, A100R/D57E/F55L/F60I/F76Y/I96L/L162R/M171V/P40L/Q125E/R42F/V115G/Y59C); conditions: DRB1 *0101
HLA-DR DRB1*0701 (DR7) = HLA-DR DRB1*0701 (DR7) (Homo sapiens, UniProt P01903+P01911, A100R/A102G/A103Q/D57E/D86V/E43K/F76Y/K127E/L162R/M171V/P40G/Q125H/Q99D/R33Q/R42Y/R54Q/S133A/S66F/T210M/V115G/Y107V/Y59L/Y89S); conditions: DRB1 *0701
HLA-DR DRB1*0802 (DR8) = HLA-DR DRB1*0802 (DR8) (Homo sapiens, UniProt P01903+P01911, A100R/A103L/A169T/F76Y/H45Y/I96F/K41T/L162R/M171V/P40S/Q125H/Q178H/Q39Y/Q99D/R218S/R42G/S66Y/V115G/W38E)
HLA-DR DRB1*0901 (DR9) = HLA-DR DRB1*0901 (DR9) (Homo sapiens, UniProt P01903+P01911, A100R/A103E/D57H/D86V/F55Y/F60I/F76Y/I96F/K127E/L162R/M171V/P40D/Q125H/Q99R/R33Q/R42F/S133A/S66N/T210M/V115G/W38K/Y107V/Y59G/Y89S); conditions: DRB1 *0901
HLA-DR DRB1*0301 (DR3) = HLA-DR DRB1*0301 (DR3) (Homo sapiens, UniProt P01903+P01911, A100K/A102G/A103R/A169T/F55Y/I96L/K41T/L162R/M171V/P40S/Q125H/Q178H/Q39Y/R42S/S66N/T106N/T262R/W38E/Y61H)

The chains behind the UniProt entries cited, without tags or fusion partners. Residues count along the entry.
UniProt P79483, 30-266: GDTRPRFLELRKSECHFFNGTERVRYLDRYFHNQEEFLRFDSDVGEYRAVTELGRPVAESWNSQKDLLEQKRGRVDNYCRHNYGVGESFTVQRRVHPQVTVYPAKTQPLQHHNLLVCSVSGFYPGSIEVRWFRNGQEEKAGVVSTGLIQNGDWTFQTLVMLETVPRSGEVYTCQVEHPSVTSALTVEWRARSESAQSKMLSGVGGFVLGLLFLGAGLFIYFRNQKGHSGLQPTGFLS
UniProt Q30154, 30-266: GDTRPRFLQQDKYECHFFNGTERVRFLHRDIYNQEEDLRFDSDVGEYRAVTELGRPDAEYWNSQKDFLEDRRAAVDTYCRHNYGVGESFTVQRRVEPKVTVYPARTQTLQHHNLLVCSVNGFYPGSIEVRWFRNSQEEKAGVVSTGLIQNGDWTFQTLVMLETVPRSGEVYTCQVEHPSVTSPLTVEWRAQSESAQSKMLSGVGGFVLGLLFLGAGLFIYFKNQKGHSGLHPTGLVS

Compound | IC50 (HLA-DR DRB1*1501 (DR15); read-out: DRBI *1501) | IC50 (HLA-DR DRB3*0101 (DR52); read-out: DRB3 *0101) | IC50 (HLA-DR DRB4*0101 (DR53); read-out: DRB4 *0101) | IC50 (HLA-DR DRB1*1302 (DR13); read-out: DRBI *1302) | IC50 (HLA-DR DRB5*0101 (DR51); read-out: DRB5 *0101) | IC50 (HLA-DR DRB1*1101 (DR11); read-out: DRB1 *1101) | IC50 (HLA-DR DRB1*1501 (DR15); DRBI *1501) | IC50 (HLA-DR DRB3*0101 (DR52)) | IC50 (HLA-DR DRB1*0401 (DR4)) | IC50 (HLA-DR DRB1*1101 (DR11); DRB1 *1101) | IC50 (HLA-DR DRB1*0405 (DR4)) | IC50 (HLA-DR DRB4*0101 (DR53); DRB4 *0101) | IC50 (HLA-DR DRB1*0101 (DR1)) | IC50 (HLA-DR DRB1*1302 (DR13); DRBI *1302) | IC50 (HLA-DR DRB1*0701 (DR7)) | IC50 (HLA-DR DRB5*0101 (DR51); DRB5 *0101) | IC50 (HLA-DR DRB1*0802 (DR8)) | IC50 (HLA-DR DRB1*0901 (DR9)) | IC50 (HLA-DR DRB1*0301 (DR3))
LVNSSQPWEPLQLHV | 2.36 µM | 18 µM | 3.41 µM | 0.504 µM | 10 µM |  |  |  |  |  |  |  |  |  |  |  |  |  | 
VDAQGTLSKIFKLGGRDSRS |  | 0.769 µM |  |  |  | 0.018 µM |  |  |  |  |  |  |  |  |  |  |  |  | 
VLERYLLEAKEAENI | 0.269 µM | 0.34 µM | 8.92 µM | 0.881 µM | 6.71 µM |  |  |  |  |  |  |  |  |  |  |  |  |  | 
CC(C)C[C@H](NC(=O)[C@H](C)NC(=O)[C@H](CCC(N)=O)NC(=O)CNC(=O)[C@H](CCCNC(=N)N)NC(=O)[C@H](CC(C)C)NC(=O)[C@@H](NC(=O)[C@H](C)NC(=O)[C@H](CCC(=O)O)NC(=O)[C@@H](N)CO)C(C)C)C(=O)N[C@@H](CC(C)C)C(=O)N[C@H](C(=O)N[C@@H](CC(N)=O)C(=O)N[C@@H](CO)C(=O)N[C@@H](CO)C(=O)O)C(C)C |  |  |  |  |  |  | 0.151 µM | 4 µM | 2.06 µM | 3.48 µM | 17.4 µM | 0.023 µM | 0.011 µM | 0.0074 µM | 1.09 µM |  |  |  | 
CSCC[C@H](NC(=O)[C@H](CCCNC(=N)N)NC(=O)[C@H](CCCCN)NC(=O)CNC(=O)[C@H](CCCNC(=N)N)NC(=O)[C@@H](NC(=O)[C@H](Cc1ccccc1)NC(=O)[C@H](CC(=O)O)NC(=O)[C@H](CCC(=O)O)NC(=O)[C@H](CCCCN)NC(=O)[C@H](CCC(=O)O)NC(=O)[C@@H](N)CC(C)C)[C@@H](C)O)C(=O)N[C@@H](CO)C(=O)N[C@@H](CO)C(=O)N[C@@H](CC(C)C)C(=O)O |  |  |  |  |  |  | 14.1 µM | 6.27 µM |  | 0.698 µM | 5.69 µM | 16.1 µM | 22 µM | 25.4 µM | 0.946 µM | 4.9 µM | 0.804 µM |  | 
CC[C@H](C)[C@H](NC(=O)[C@H](CCC(=O)O)NC(=O)[C@H](CCC(=O)O)NC(=O)[C@@H]1CCCN1C(=O)[C@@H](NC(=O)[C@H](CC(=O)O)NC(=O)[C@H](Cc1ccccc1)NC(=O)[C@H](CC(N)=O)NC(=O)[C@@H](N)CCCNC(=N)N)[C@@H](C)CC)C(=O)N[C@@H](CCCCN)C(=O)N[C@@H](CCC(N)=O)C(=O)N[C@@H](CC(C)C)C(=O)N[C@@H](CCC(N)=O)C(=O)N[C@@H](CCC(N)=O)C(=O)N[C@@H](Cc1ccccc1)C(=O)O |  |  |  |  |  |  | 2.04 µM | 23.8 µM |  |  |  | 0.311 µM |  |  |  | 6.85 µM |  |  | 
CC[C@H](C)[C@H](NC(=O)[C@@H](NC(=O)[C@@H]1CCCN1C(=O)[C@@H](N)Cc1ccccc1)[C@@H](C)O)C(=O)N1CCC[C@H]1C(=O)N[C@@H](CC(C)C)C(=O)N[C@@H](CO)C(=O)N[C@@H](CCCNC(=N)N)C(=O)N[C@@H](CC(C)C)C(=O)N[C@@H](Cc1ccccc1)C(=O)N[C@@H](CC(=O)O)C(=O)N[C@@H](CC(N)=O)C(=O)N[C@@H](C)C(=O)N[C@@H](CO)C(=O)N[C@@H](CC(C)C)C(=O)O |  |  |  |  |  |  | 1.39 µM | 2.58 µM | 0.228 µM |  | 7.21 µM | 0.194 µM | 8.07 µM | 7.49 µM |  | 5.8 µM | 4.97 µM | 9.88 µM | 
CC[C@H](C)[C@H](NC(=O)[C@H](CC(C)C)NC(=O)[C@H](CCCNC(=N)N)NC(=O)[C@@H]1CCCN1C(=O)[C@@H]1CCCN1C(=O)[C@H](C)N)C(=O)N[C@@H](CS)C(=O)N[C@@H](CC(=O)O)C(=O)N[C@@H](CO)C(=O)N[C@@H](CCCNC(=N)N)C(=O)N[C@H](C(=O)N[C@@H](CC(C)C)C(=O)N[C@@H](CCC(=O)O)C(=O)N[C@@H](CCCNC(=N)N)C(=O)N[C@@H](Cc1ccc(O)cc1)C(=O)O)C(C)C |  |  |  |  |  |  |  |  | 9.73 µM |  | 7.14 µM | 2.84 µM |  |  | 8.94 µM | 6.09 µM | 11.2 µM | 9.35 µM | 0.0063 µM
CC[C@H](C)[C@H](NC(=O)[C@H](CCC(N)=O)NC(=O)CNC(=O)[C@@H](NC(=O)[C@H](CCCNC(=N)N)NC(=O)[C@@H]1CCCN1C(=O)[C@H](CO)NC(=O)CNC(=O)[C@H](CC(=O)O)NC(=O)[C@H](CCC(=O)O)NC(=O)[C@H](CC(C)C)NC(=O)[C@@H](N)CCCNC(=N)N)[C@@H](C)O)C(=O)N[C@@H](Cc1ccccc1)C(=O)N[C@@H](CCCCN)C(=O)N[C@@H](CCC(N)=O)C(=O)O |  |  |  |  |  |  | 9.11 µM | 18.1 µM | 7.91 µM | 7.9 µM |  |  |  |  |  | 12.6 µM |  |  | 
IVSDGNGMNAWVAWRNRC |  | > 6.25 µM |  |  | > 2.22 µM |  |  |  |  |  |  |  |  |  |  |  |  |  | 
CC[C@H](C)[C@H](NC(=O)[C@H](CC(N)=O)NC(=O)[C@H](CCC(=O)O)NC(=O)[C@H](CC(N)=O)NC(=O)[C@H](CC(C)C)NC(=O)[C@H](CO)NC(=O)[C@H](CS)NC(=O)[C@H](Cc1c[nH]cn1)NC(=O)[C@@H](N)CCC(=O)O)C(=O)N[C@H](C(=O)N[C@H](C(=O)N1CCC[C@H]1C(=O)N[C@@H](CC(=O)O)C(=O)N[C@H](C(=O)N[C@@H](CCCCN)C(=O)O)[C@@H](C)O)C(C)C)[C@@H](C)O |  |  |  |  |  |  | 12 µM | 8.31 µM | 2.29 µM |  | 1.2 µM |  | 9.84 µM | 0.084 µM |  | 6.63 µM | 6.19 µM |  | 
CC[C@H](C)[C@H](NC(=O)[C@@H](NC(=O)[C@H](CCC(=O)O)NC(=O)[C@H](CC(N)=O)NC(=O)[C@H](Cc1c[nH]c2ccccc12)NC(=O)CNC(=O)[C@@H](NC(=O)[C@H](CO)NC(=O)[C@H](CO)NC(=O)[C@H](CO)NC(=O)[C@H](CC(=O)O)NC(=O)[C@H](CCC(N)=O)NC(=O)[C@@H](N)CCCNC(=N)N)[C@@H](C)O)[C@@H](C)O)C(=O)N[C@H](C(=O)N[C@@H](CCC(=O)O)C(=O)O)C(C)C [RQDSSSTGWNETIVE] |  |  |  |  |  |  |  | 9.17 µM | 4.64 µM |  |  | 1.5 µM |  | 0.848 µM |  | 8.65 µM | 15.1 µM | 9.07 µM | 
CC[C@H](C)[C@H](NC(=O)[C@H](CCCNC(=N)N)NC(=O)[C@H](CC(C)C)NC(=O)[C@H](Cc1ccccc1)NC(=O)[C@@H](NC(=O)[C@H](CCC(=O)O)NC(=O)[C@@H](NC(=O)[C@H](CCCCN)NC(=O)[C@H](CC(=O)O)NC(=O)[C@H](CCSC)NC(=O)[C@@H](N)CC(=O)O)C(C)C)[C@@H](C)O)C(=O)N[C@H](C(=O)N[C@@H](CCC(N)=O)C(=O)N[C@@H](CS)C(=O)N[C@@H](CCCNC(=N)N)C(=O)O)C(C)C |  |  |  |  |  |  | 0.201 µM |  | 0.867 µM | 0.885 µM | 0.622 µM | 0.826 µM | 1.28 µM | 1.23 µM | 10.5 µM | 7.45 µM |  | 16.1 µM | 4.81 µM
CC(C)C[C@H](NC(=O)[C@H](C)NC(=O)[C@H](CCC(N)=O)NC(=O)CNC(=O)[C@@H](N)CCCNC(=N)N)C(=O)N[C@@H](CC(C)C)C(=O)N[C@H](C(=O)N[C@@H](CC(N)=O)C(=O)N[C@@H](CO)C(=O)N[C@@H](CO)C(=O)N[C@@H](CCC(N)=O)C(=O)N1CCC[C@H]1C(=O)N[C@@H](Cc1c[nH]c2ccccc12)C(=O)N[C@@H](CCC(=O)O)C(=O)N1CCC[C@H]1C(=O)O)C(C)C |  |  |  |  |  |  | 2.88 µM | 6.17 µM | 1.7 µM |  | 3.43 µM | 1.55 µM | 1.12 µM | 0.0034 µM |  | 0.558 µM |  | 8.45 µM | 

Reference: patent US20060079453A1, “Hla binding peptides and their uses” (priority 2002, published 2006)
